# Biological target: Lyn (Homo sapiens (Human), UniProt P07948)
# Protein sequences, listed by entry. Tags and fused reporters are not part of them. Lines headed by an entry give the natural chain unless they say otherwise; changes in a name come on top.
# UniProt P07948: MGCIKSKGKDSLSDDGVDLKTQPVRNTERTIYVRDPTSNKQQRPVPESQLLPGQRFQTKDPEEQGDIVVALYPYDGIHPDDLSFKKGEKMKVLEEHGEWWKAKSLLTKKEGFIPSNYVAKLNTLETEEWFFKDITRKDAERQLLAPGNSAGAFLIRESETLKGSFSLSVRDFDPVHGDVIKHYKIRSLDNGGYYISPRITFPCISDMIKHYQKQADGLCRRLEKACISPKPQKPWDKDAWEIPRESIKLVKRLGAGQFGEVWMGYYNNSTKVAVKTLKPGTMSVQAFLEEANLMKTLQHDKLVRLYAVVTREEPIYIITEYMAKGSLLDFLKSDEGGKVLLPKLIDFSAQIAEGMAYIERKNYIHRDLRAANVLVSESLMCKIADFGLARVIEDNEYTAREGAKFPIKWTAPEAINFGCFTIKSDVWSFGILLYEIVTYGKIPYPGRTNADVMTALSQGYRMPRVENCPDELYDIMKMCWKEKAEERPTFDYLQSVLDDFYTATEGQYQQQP
# Conditions: read-out: Lyn IC50
smiles,measurement,value
"CCn1c(=O)c(-c2cc(OC)ccc2F)cc2cnc(Nc3ccc(N(C)C4CCN(C)CC4)cn3)cc21 [Compound 119, 1-ethyl-3-(2-fluoro-5-methoxyphenyl)-7-((5-(methyl(1-methylpiperidin-4-yl)amino)pyridin-2-yl)amino)-1,6-naphthyridin-2(1H)-one]",IC50,< 100 nM

# From patent publication US9714247B2, “Multiple kinase pathway inhibitors” (Mannkind Corporation, priority 2012, dated 2017)
